Measurements: patent US20230113944A1, “COMPOSITIONS AND METHODS FOR THE TREATMENT OF NEURODEGENERATIVE DISEASES” (priority 2020, published 2023)
Read-outs that look alike come from different tables or passages of the source.

Biological target: T1, human nSMase2 (Homo sapiens, UniProt Q9NY59)
T1 construct: expressed in transfected cells; host or cells: HEK293T
T1 sequence (Q9NY59 1-655): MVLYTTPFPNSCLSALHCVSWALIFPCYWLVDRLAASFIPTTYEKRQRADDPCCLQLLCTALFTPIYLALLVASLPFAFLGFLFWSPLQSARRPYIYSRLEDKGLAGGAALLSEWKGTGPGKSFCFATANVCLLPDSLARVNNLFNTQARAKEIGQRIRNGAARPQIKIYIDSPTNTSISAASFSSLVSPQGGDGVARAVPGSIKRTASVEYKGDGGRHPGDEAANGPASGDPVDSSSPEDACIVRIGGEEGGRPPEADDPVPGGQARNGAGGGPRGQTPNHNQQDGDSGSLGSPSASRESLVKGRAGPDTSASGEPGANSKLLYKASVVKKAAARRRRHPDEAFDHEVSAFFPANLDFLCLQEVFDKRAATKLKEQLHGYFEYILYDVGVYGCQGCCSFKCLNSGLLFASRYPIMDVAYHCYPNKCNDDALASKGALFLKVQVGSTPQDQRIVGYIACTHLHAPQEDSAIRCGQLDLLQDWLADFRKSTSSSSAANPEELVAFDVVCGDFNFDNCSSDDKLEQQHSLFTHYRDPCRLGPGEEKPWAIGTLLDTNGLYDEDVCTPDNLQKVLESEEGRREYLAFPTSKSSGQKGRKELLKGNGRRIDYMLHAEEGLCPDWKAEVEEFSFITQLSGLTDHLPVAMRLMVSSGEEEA
Experiment: biochemical
Method: To evaluate nSMase2 inhibitory activity of tested compounds, cell lysates from HEK293T cells over-expressing human nSMase2 were used as the source of the nSMase2 enzyme. The Amplex Red Sphingomyelinase activity assay was performed according to previously a described protocol^1. Confluent cells were washed with PBS and harvested with lysis buffer [100 mM Tris-HCl pH 7.5, 100 mM sucrose, 100 μM PMSF, 1× protease inhibitor cocktail] using a cell scraper, and then sonicated 3 times on ice for 10 sec and centrifuged at 10,000×g for 10 min at 4° C. to remove remaining cell debris. An initial screening of a compound library was performed using 50 μM compound concentrations. In secondary testing, selected compounds were analyzed at multiple compound concentrations and plotted as a percentage of DMSO control; dose-response curves were generated to determine IC50s using GraphPad Prism software (GraphPad Software, La Jolla Calif.). […] Activity of the enzyme in the presence of the different concentrations of the inhibitors was plotted against substrate concentration and the maximal rate of the enzymatic reaction (Vmax) and Michaelis constant were calculated using GraphPad Prism.

## CCN(C)C(=O)Oc1ccc2c(c1)[C@]1(C)CCO[C@@H]1N2C [drawing 65]
  IC50: 1 to 10 µM

## CCN(C)C(=O)Oc1ccc2c(c1)[C@]1(C)CCO[C@@H]1N2C [Compound 16]
IC50 nSMase2, Table 2, unit not in table, μM
  IC50: > 5 µM
